Measured values: patent publication US4333930A, “Orthoarylideneaminophenethylamines and pharmaceutical compositions” (priority 1980, dated 1982)

Test system: Swiss mice
Assay: Oral toxicity (mortality) in the mouse, Table 1
Assay type: in vivo
Details: 2000 mg/kg, 14 days
Description: The mortality percentages caused by the products of the present invention administered orally to Swiss mice are shown in Table 1. The animals, free of specific pathological organism were housed in an air conditioned room from 24 to 48 hours before the start of the experiments. They were divided up into lots of 5 males and 5 females. With the animals unfed for 24 hours, the substances were administered intragastrically in a base of 6% gum arabic in a volume equal to 0.1 ml for 10 g of animal weight. The mortality was recorded at 14 days.
% of mortality as a function of the dose

2-(2-N,N-dimethylamino-1-methylethyl)-N-pyridylidene-3 aniline [COR 01 213]
% of mortality: 0%
